# Laboratory results as given in patent US20250326753A1, “DUAL CXCR4-BTK INHIBITORS” (X4 Pharmaceuticals, Inc., priority 2022, published 2025).
# Protein sequences, listed by entry. Tags and fused reporters are not part of them.
# UniProt P06241, whole entry: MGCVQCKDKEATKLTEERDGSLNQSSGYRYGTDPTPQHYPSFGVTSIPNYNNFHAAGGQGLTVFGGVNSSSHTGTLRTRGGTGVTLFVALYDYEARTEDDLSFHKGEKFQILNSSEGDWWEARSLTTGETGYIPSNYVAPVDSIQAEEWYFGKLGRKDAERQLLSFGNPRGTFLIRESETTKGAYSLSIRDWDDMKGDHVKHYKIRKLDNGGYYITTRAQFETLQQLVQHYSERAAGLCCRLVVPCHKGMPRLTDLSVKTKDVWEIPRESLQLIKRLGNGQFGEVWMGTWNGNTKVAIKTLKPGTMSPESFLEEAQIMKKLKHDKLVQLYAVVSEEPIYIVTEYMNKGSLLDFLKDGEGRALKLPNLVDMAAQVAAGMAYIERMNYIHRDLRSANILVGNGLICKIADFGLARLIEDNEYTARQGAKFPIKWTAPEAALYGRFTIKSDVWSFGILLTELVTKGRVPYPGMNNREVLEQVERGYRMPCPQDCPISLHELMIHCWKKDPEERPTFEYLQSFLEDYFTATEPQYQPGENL
# What was measured:
# FYN = FYN (Homo sapiens, UniProt P06241); assay: PanQinase kinase panel: FYN; conditions: read-out: INHIBITORY EFFECT @ 1 uM: FYN
# SRC = SRC (Homo sapiens, UniProt P12931); assay: PanQinase kinase panel: SRC; conditions: read-out: INHIBITORY EFFECT @ 1 uM: SRC
compound,measurement,setting,value
"O=C(c1ccc(Oc2ccccc2)cc1Cl)c1c[nH]c2ncnc(N[C@@H]3CC[C@@H](CO)OC3)c12 [ARQ-531, (2-chloro-4-phenoxyphenyl) (4-(((3R,6S)-6-(hydroxymethyl)tetrahydro-2H-pyran-3-yl)amino)-7H-pyrrolo[2,3-d]pyrimidin-5-yl) methanone]",inhibition at 1 µM,FYN,90 to 100%
same,inhibition at 1 µM,SRC,70 to 89%
